Measurements: US5104858A, “Sensitizing multidrug resistant cells to antitumor agents” (priority 1988, dated 1992)

Experiments:
MCF-7/DOX cells [1] = test: Inhibition of MCF-7/DOX cell growth, microtiter methylene blue staining assay, 48 h; assay type: cell-based, human; details: read-out: Cell Growth Inhibition IC50 (Table 5), structurally related compounds
MCF-7/DOX cells [2] = test: Antagonism of multidrug resistance (sensitization to doxorubicin) in MCF-7/DOX cells, MDR Ratio; assay type: cell-based, human; details: 0-100 μM doxorubicin, 48 h, modifier at concentration alone producing 10% growth inhibition
Calmodulin = Calmodulin (Bos taurus, UniProt P62157); test: Inhibition of calmodulin-induced activation of phosphodiesterase; details: read-out: Calmodulin IC50; inhibition by 50% of calmodulin-induced activation of phosphodiesterase

In the case of `O=c1[nH]c2ccccc2n1C1CCN(CCCCc2ccc(F)cc2)CC1`, the pIC50 (MCF-7/DOX cells [1]) was 4.57, the “MDR Ratio (IC50 doxorubicin alone / IC50 doxorubicin in presence of modifier)” value (MCF-7/DOX cells [2]) was 1.1 and the pIC50 (Calmodulin) was 4.40.

pIC50: −log10 of the molar value. This is a selection: effects in other tests are not listed, and their absence says nothing.
